Test results published in US20240325375A1, “Effect of YEL002 on Psychological and Psychiatric Factors in Health and Disease” (RadMit, Inc., priority 2023, published 2024).

Test system: cells
Assay: Resistance of cells to exposure to a variety of agents
Settings: UV, chemical carcinogens, chemical warfare agents, radioactive iodine and cigarette smoke

Question: `COc1ccc2cc(-c3nc4ccc(C)cn4c3NCc3ccco3)c(=O)[nH]c2c1` [YEL002] was tested. Which “resistance of cells to exposure to agents” value did it give?
Answer: more resistant
